The target of test [1] is human A3AR (Homo sapiens, UniProt P0DMS8). Nature of the test: biochemical. The settings on record: 3 h, read-out: hA3 percentage displacement of specific binding at 1 μM.
Test [2] concerns the target human A2AAR (Homo sapiens, UniProt P29274). The settings on record: [3H]ZM241385, human HeLa cells, n = 2.
Test [3] deals with T1, human A2BAR (Homo sapiens, UniProt P29275).
T1 sequence (P29275 1-332): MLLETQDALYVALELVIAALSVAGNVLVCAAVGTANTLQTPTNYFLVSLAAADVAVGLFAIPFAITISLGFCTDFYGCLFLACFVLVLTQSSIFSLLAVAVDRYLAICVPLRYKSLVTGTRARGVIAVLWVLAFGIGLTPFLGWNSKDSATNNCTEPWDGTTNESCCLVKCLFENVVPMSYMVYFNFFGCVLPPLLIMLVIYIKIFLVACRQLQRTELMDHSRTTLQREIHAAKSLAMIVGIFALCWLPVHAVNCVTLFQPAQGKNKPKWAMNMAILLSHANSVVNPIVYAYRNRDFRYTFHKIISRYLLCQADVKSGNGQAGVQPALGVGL
Nature of the test: biochemical. Conditions: read-out: hA2B percentage displacement of specific binding at 1 μM.

Chains of the proteins cited; added tags and fusions are not shown.
UniProt P0DMS8, whole entry: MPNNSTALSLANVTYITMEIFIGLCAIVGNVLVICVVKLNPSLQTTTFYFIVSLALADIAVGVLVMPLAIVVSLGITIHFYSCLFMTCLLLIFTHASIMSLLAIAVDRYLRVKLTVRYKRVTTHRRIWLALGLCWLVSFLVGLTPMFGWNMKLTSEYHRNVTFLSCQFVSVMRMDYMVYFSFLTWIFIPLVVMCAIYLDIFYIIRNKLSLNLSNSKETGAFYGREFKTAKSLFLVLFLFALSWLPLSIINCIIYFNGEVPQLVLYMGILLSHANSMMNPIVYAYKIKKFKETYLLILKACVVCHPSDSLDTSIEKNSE

As to `N#Cc1c(-c2ccccc2)nc(N)nc1C1CCCC1` [18ad], the figures for the inhibition at 1 µM in test [1] and in test [3] were 19% and 1%, respectively. Moreover, the “hA2A percentage displacement of specific binding at 1 μM” value (“hA2A percentage displacement” below) in test [2] is 12%.

With `N#Cc1c(-c2ccccc2)nc(N)nc1C1CCCCC1` [18ae], the figures for the inhibition at 1 µM in test [1] and in test [3] were 2% and 5%, respectively. Moreover, in test [2], the “hA2A percentage displacement” value is given as 10%.

For `N#Cc1c(-c2ccccc2)nc(N)nc1-c1ccc(-c2ccccc2)cc1` [18ag], the “hA2A percentage displacement” value in test [2] turned out to be 16%. Also, the inhibition at 1 µM in test [3] was 1%.

With `COc1ccc(-c2nc(N)nc(-c3ccc(OC)cc3)c2C#N)cc1` [18al], the inhibition at 1 µM in test [1] amounted to 9%; in test [3], 1%. Further, the “hA2A percentage displacement” value in test [2] was 2%.

In the case of `N#Cc1c(-c2ccccc2)nc(N)nc1-c1ccccc1Cl` [18c], the inhibition at 1 µM in test [1] was 1%; in test [3], 9%. Further, the “hA2A percentage displacement” value in test [2] worked out at 1%.

Regarding `N#Cc1c(-c2ccccc2)nc(N)nc1-c1ccc(Cl)cc1Cl` [18p], the inhibition at 1 µM in test [1] was determined as 7%; in test [3] it was 2%. In addition, the “hA2A percentage displacement” value in test [2] is 29%.

Take `N#Cc1c(-c2ccccc2)nc(N)nc1-c1cc(F)cc(F)c1` [18r]: the inhibition at 1 µM in test [1] and in test [3] was 1% throughout. Further, the “hA2A percentage displacement” value in test [2] came to 24%.

Take `N#Cc1c(-c2ccccc2)nc(Nc2ccccc2)nc1-c1ccc(O)cc1` [19aa]: the inhibition at 1 µM in test [1] and in test [3] was 1% each time. Moreover, the “hA2A percentage displacement” value in test [2] is reported as 9%.

Turning to `N#Cc1c(-c2ccccc2)nc(Nc2ccccc2)nc1-c1ccc(F)cc1F` [19ag], the inhibition at 1 µM came to 29% in test [1] and 2% in test [3]. Moreover, the “hA2A percentage displacement” value in test [2] was 2%.

On to `CNc1nc(-c2ccccc2)c(C#N)c(-c2cc(F)cc(F)c2)n1` [19ah], for which the inhibition at 1 µM was found to be 2% in test [1] and 15% in test [3]. Moreover, the “hA2A percentage displacement” value in test [2] worked out at 1%.

Regarding `CCNc1nc(-c2ccccc2)c(C#N)c(-c2cc(Cl)cc(Cl)c2)n1` [19ak], the inhibition at 1 µM in test [1] and in test [3] was 1% each time. The “hA2A percentage displacement” value in test [2] is 16%.

As to `CNc1nc(-c2ccccc2)c(C#N)c(-c2cccs2)n1` [19av], the inhibition at 1 µM in test [1] was 1%; in test [3] it was 9%. Also, in test [2], the “hA2A percentage displacement” value worked out at 25%.

`CNc1nc(-c2ccccc2)c(C#N)c(-c2ccsc2)n1` [19az]: the inhibition at 1 µM in test [1] worked out at 1%; in test [3] it was 51%. Also, the “hA2A percentage displacement” value in test [2] is given as 26%.

In the case of `CNc1nc(-c2ccccc2)c(C#N)c(-c2ccncc2)n1` [19bb], the inhibition at 1 µM in test [1] was determined as 1%; in test [3], 12%. For the same molecule, the “hA2A percentage displacement” value in test [2] came out at 5%.

Consider `N#Cc1c(-c2ccccc2)nc(Nc2ccccc2)nc1-c1ccncc1` [19bc], for which the inhibition at 1 µM in test [1] was 12%; in test [3], 18%. Further, the “hA2A percentage displacement” value in test [2] is 17%.

Consider `CNc1nc(-c2ccccc2)c(C#N)c(-c2cccnc2)n1` [19bd], for which the inhibition at 1 µM in test [1] amounted to 1%; in test [3], 13%. In addition, the “hA2A percentage displacement” value in test [2] was found to be 19%.

In the case of `N#Cc1cccc(-c2nc(Nc3ccccc3)nc(-c3ccccc3)c2C#N)c1` [19u], the inhibition at 1 µM in test [1] was found to be 2%. Also, in test [2], the “hA2A percentage displacement” value is listed as 19%.

With `N#Cc1c(-c2ccccc2)nc(Nc2ccccc2)nc1-c1ccc(F)cc1` [19w], the inhibition at 1 µM in test [1] is 9%. For the same molecule, the “hA2A percentage displacement” value in test [2] is listed as 10%.

For `CN(C)c1nc(-c2ccccc2)c(C#N)c(-c2cccc(Cl)c2)n1` [20b], the “hA2A percentage displacement” value in test [2] is given as 2%. Further, in test [3], the inhibition at 1 µM is 1%.

The values are drawn from publication PMC8842224 (2022).
